This assay concerns the target T1, Androgen receptor (Rattus norvegicus, UniProt P15207).
T1 sequence (P15207 whole entry): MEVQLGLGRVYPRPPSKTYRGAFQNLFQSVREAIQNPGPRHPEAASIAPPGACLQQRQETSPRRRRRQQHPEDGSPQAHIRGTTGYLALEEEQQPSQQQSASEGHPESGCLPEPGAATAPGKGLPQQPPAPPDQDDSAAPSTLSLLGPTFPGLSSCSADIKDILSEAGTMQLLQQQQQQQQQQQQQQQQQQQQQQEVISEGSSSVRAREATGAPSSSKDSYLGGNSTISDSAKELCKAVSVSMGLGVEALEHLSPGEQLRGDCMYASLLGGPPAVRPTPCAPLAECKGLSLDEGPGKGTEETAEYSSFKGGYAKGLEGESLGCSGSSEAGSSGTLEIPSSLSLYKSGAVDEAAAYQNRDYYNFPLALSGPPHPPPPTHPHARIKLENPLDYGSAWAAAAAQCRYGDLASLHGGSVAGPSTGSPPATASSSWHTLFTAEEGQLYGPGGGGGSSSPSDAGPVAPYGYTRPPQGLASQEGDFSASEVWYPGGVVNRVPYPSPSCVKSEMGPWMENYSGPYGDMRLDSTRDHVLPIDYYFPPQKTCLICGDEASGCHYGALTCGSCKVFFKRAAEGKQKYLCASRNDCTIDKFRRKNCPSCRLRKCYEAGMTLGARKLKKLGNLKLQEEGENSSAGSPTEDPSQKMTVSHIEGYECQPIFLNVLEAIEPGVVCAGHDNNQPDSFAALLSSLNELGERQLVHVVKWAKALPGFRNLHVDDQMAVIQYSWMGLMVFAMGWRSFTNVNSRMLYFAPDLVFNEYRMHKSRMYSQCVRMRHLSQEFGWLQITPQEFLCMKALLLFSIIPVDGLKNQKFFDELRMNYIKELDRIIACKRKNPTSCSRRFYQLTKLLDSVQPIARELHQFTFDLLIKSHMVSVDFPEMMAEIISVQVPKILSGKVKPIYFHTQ

Molecules are shown by their SMILES.

`C[C@](O)(CSc1ccc(F)cc1)C(=O)Nc1ccc2c(C(F)(F)F)cc(=O)oc2c1`: the affinity, expressed as Ki, was 339 nM.
Take `Cc1cc(=O)oc2cc(NC(=O)[C@@](C)(O)CBr)ccc12`: the affinity, expressed as Ki, was 275 nM.

The values above are taken from ChEMBL document CHEMBL1142681, “Three-dimensional structure-activity relationships of nonsteroidal ligands in complex with androgen receptor ligand-binding domain” (J Med Chem, 2005).
